Experiments:
Assay type in all cases: cell-based
Human KOR = Human KOR (Homo sapiens, UniProt P41145); experiment: BRET functional assay, G protein activation (agonist mode), human KOR; conditions: read-out: EC50 at indicated opioid receptor, Human KOR; Table 3; HEK-293T, BRET signal at 5 minutes
Human MOR = Human MOR (Homo sapiens, UniProt P35372); experiment: BRET functional assay, G protein activation (agonist mode), human MOR; conditions: read-out: EC50 at indicated opioid receptor, Human MOR; Table 3; HEK-293T, BRET signal at 5 minutes
Human DOR = Human DOR (Homo sapiens, UniProt P41143); experiment: BRET functional assay, G protein activation (agonist mode), human DOR; conditions: read-out: EC50 at indicated opioid receptor, Human DOR; Table 3; HEK-293T, BRET signal at 5 minutes

The chains behind the UniProt entries cited, without tags or fusion partners. Where a name states a change or a piece, a line headed by the entry shows the natural chain unless it says otherwise.
UniProt P41145: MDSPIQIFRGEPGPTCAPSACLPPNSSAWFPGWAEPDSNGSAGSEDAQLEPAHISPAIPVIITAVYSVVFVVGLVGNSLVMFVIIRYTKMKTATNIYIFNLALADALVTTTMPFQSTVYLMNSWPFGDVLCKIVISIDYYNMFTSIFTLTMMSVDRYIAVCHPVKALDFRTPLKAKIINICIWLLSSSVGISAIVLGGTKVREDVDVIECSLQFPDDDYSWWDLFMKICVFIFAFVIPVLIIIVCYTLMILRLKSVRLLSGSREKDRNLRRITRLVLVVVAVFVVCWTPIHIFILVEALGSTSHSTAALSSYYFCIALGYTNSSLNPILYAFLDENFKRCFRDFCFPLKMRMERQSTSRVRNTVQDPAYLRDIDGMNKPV
UniProt P35372, whole entry, looked up: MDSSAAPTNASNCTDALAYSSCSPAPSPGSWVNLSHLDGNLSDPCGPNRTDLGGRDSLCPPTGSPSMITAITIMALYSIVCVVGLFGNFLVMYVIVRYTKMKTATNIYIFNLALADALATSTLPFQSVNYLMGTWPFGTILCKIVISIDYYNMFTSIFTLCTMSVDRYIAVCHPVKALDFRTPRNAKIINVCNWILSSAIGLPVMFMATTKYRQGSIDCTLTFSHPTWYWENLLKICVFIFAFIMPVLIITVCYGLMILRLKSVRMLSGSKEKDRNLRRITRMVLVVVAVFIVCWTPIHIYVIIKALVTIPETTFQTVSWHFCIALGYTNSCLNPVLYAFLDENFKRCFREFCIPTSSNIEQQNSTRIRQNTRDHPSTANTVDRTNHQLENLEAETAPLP
UniProt P41143, whole entry, looked up: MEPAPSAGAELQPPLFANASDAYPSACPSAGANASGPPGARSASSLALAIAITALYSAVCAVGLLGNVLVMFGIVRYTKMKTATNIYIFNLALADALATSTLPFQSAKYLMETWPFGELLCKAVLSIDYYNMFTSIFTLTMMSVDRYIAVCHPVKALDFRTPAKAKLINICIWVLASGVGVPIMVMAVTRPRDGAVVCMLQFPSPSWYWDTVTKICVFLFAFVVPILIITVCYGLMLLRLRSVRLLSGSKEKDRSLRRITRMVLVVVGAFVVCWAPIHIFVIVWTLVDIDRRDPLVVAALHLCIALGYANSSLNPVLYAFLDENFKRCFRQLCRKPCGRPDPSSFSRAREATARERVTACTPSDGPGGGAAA

## CCC1CC2CC3c4nc5ccc(O)cc5n4CCN(C2)C13 (stereo not drawn)
Human KOR
  EC50: > 10 µM
Human MOR
  EC50: > 100 µM
Human DOR
  EC50: > 100 µM

Source: patent publication US11840541B2 (priority 2014, dated 2023)
